Experimental data reported in PubChem BioAssay AID1979 (Broad Institute, 2009).
The entries are a selection whose mix differs from that of the whole data set. Calls of active or inactive are those of the source.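 How the source made its calls: active means growth inhibition above about 58% in most replicates (limit read from the data, passing the limit was not always enough); inconclusive means exactly half the replicates above a set limit; inactive means most replicates below a set limit.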

Assay: C. albicans growth inhibition with fluconazole, primary screen, CaCi-2 strain, Alamar Blue fluorescence (AID 1979);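 further: all wells also contain fluconazole at 8 µg/ml as a sub-toxic cotreatment; 0% = median of DMSO wells and 100% = median of geldanamycin control wells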
Conditions: C. albicans CaCi-2 (fluconazole-resistant clinical isolate) + fluconazole, 48 h, stronger effect = higher value, concentration not given here

Row | SMILES | growth inhibition
1 | O=P(Nc1ccccn1)(c1cccc2ccccc12)c1cccc2ccccc12 | active: 94.5%
2 | CCC(C)N(CC(C)C)C(=S)SC(NC(C)=O)C(Cl)(Cl)Cl (configuration not stated) | active: 98%
